Source: PMC4854767 (2016)

Sequences of proteins named here, by UniProt entry; tags and fusion partners are left off.
UniProt P03372, whole entry: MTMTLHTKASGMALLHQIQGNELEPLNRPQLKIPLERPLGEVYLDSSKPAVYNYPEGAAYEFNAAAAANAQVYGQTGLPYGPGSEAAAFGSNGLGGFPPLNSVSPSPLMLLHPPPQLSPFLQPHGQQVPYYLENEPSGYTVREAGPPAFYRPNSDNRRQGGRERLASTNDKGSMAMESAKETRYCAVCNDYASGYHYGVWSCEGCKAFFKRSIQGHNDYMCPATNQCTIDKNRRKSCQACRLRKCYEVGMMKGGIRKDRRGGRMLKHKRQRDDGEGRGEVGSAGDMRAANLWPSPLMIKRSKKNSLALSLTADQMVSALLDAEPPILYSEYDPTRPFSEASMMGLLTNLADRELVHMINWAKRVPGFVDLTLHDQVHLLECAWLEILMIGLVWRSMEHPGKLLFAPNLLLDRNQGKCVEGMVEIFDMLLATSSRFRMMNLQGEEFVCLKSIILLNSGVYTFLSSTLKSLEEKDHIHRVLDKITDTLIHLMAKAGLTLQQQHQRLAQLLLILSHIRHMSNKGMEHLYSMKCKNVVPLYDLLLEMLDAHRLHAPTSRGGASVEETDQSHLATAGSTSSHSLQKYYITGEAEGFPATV

Experiments:
MCF-7 tumors = assay: IHC for geminin and Ki67 in MCF-7 tumors; details: single-agent fulv; baseline 52.1%
ER = ER (Homo sapiens, UniProt P03372); assay: Duration of ER inhibition in MCF-7 tumors by fulv clinical formulation; details: 5 mg/wk s.c., data not shown

C[C@]12CC[C@@H]3c4ccc(O)cc4C[C@@H](CCCCCCCCC[S+]([O-])CCCC(F)(F)C(F)(F)F)[C@H]3[C@@H]1CC[C@@H]2O (some centres unmarked) [fulv]
geminin/Ki67 ratio (tumor cell proliferation) (MCF-7 tumors): 34.9%
duration of ER inhibition in MCF-7 tumors (ER): ≥ 8 days
